22 molecules from PubChem BioAssay AID624304 (Sanford-Burnham Center for Chemical Genomics, 2012) can be followed below.

Only a part is listed here, and it is no random draw. Activity calls are given as the source filed them.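 How the source made its calls: active means interference check ratio from 0.5 to 1.5 plus GFP to RFP signal ratio inhibition reaching or exceeding a fixed threshold (cut at about 30% in these data, passing the limit was not always enough); inactive means the rest.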

This experiment is described as follows: gst-4 reporter inhibition in live C. elegans – whole organism, uHTS, GFP/RFP fluorescence ratio, strain VP596, SKN-1 inhibitor project, primary screen (AID 624304). The note with it: C. elegans VP596 Pgst-4::GFP/RFP ratio, acrylamide-induced, 24 h; at 21.8 µM; active compounds read high.
One may read the inhibition as the change of the read-out against control, counted positive when it falls. Regarding `CC(C)(C)OC(=O)N1CCC(N(C(=O)c2ccccc2)c2ccc(F)cc2)CC1`, the inhibition was inactive: -18.6%.
With `COc1ccc(C(=O)NCC2(N3CCCCC3)CCCCC2)c(OC)c1OC`, the inhibition was inactive: 2.77%.
Take `COc1ccc(C(=O)NCC2(N3CCCCC3)CCCCC2)cc1`: the inhibition was inactive: 3.17%.
Take `CCCCn1nnnc1C(c1cccs1)N1CCC(n2c(=O)[nH]c3ccccc32)CC1` (configuration not stated): the inhibition was inactive: 20.1%.
In the case of `O=C(NCC1(N2CCCCC2)CCCCC1)c1cccs1` it was inactive: 9.59%; in that of `CCCCn1nnnc1C(CC)N1CCC(n2c(=O)[nH]c3ccccc32)CC1` (configuration not stated), inactive: 8.54%.
In the case of `O=C(NCC1(N2CCCCC2)CCCCC1)c1ccc(=O)[nH]c1`, the inhibition was inactive: 21.3%.
In the case of `Cc1cccc(NC2(C#N)CCN(Cc3ccccc3)CC2)c1` it was inactive: -2.16%; in that of `CSc1ccccc1C(=O)NCC1(N2CCCCC2)CCCCC1`, inactive: 17.4%.
The value for `O=c1[nH]c2ccccc2n1C1CCN(C(c2ccccc2)c2nnnn2C2CCCCC2)CC1` (configuration not stated) was inactive: 16.5%.
The value for `COc1cc(C(=O)NCC2(N(C)C)CCCCC2)ccc1OC(F)F` was inactive: 8.22%; that for `CCOC(=O)N1CCC(Nc2cccc(C)c2)CC1` was inactive: -9.92%; that for `O=c1[nH]c2ccccc2n1C1CCN(C(c2cccc3ccccc23)c2nnnn2C2CCCC2)CC1` (configuration not stated) was active: 38.6%.
On to `O=C1CCN(Cc2ccccc2)CC1`, for which the inhibition is inactive: -3.68%.
Take `CC(C)(C)n1nnnc1C(c1ccccc1)N1CCC(n2c(=O)[nH]c3ccccc32)CC1` (configuration not stated): the inhibition is inactive: 11.1%.
Regarding `CCOc1ccc(C)cc1CN(CCCl)CCCl`, the inhibition was inactive: -0.64%.
On to `CCOC(=O)N1CCC(Nc2ccc(F)cc2)CC1`, for which the inhibition was inactive: -0.186%.
As for `COc1ccc(NC2CCN(CCc3ccccc3)CC2)c(OC)c1`, the inhibition is inactive: -5.8%.
With `O=C(NCC1(N2CCCCC2)CCCCC1)c1ccc(F)cc1`, the inhibition is inactive: 9.96%.
On to `CCCCOc1ccc(C(=O)NCC2(N3CCOCC3)CCCCC2)cc1`, for which the inhibition is inactive: 9.36%.
In the case of `CCCCn1nnnc1C(c1cc2ccccc2o1)N1CCC(n2c(=O)[nH]c3ccccc32)CC1` (configuration not stated), the inhibition is inactive: 26.2%.
`O=P1(N(CCCl)CCCl)SCCCS1`: the inhibition is inactive: -20.5%.
